Data reported in ChEMBL document CHEMBL4130348, “Structure-activity relationship investigation for benzonaphthyridinone derivatives as novel potent Bruton's tyrosine kinase (BTK) irreversible inhibitors” (Eur J Med Chem, 2017).

The chains behind the UniProt entries cited, without tags or fusion partners. Where a name states a change or a piece, a line headed by the entry shows the natural chain unless it says otherwise.
UniProt Q06187: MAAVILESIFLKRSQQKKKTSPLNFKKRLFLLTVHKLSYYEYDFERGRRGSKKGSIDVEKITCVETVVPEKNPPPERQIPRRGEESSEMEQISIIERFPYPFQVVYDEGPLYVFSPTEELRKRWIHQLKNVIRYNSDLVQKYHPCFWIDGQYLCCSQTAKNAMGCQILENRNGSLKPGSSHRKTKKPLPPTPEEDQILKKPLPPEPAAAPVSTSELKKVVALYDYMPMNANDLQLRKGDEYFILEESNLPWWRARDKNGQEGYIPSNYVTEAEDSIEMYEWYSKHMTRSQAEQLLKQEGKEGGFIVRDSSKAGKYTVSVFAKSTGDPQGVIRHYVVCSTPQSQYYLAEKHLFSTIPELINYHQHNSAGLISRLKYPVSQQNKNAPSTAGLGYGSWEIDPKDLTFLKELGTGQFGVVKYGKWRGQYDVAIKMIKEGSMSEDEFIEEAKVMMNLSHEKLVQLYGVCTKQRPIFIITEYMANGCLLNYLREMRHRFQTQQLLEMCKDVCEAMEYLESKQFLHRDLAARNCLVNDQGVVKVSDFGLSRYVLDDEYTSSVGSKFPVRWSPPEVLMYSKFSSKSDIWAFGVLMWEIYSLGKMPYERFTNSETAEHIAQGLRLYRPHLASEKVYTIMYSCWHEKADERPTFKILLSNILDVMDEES

Target: Tyrosine-protein kinase BTK (Homo sapiens, UniProt Q06187)
Test: Irreversible inhibition of recombinant full length His-tagged human BTK expressed in baculovirus expression system using poly (4:1 Glu, Tyr) as substrate preincubated for 2 to 60 mins followed by substrate addition measured after 1 hr by ADP-glo assay

## C=CC(=O)Nc1cc(-n2c(=O)ccc3cnc4ccc(-c5ccc(NS(C)(=O)=O)cc5)cc4c32)ccc1C
  Ki: 3.2 nM
